System: human BBB-on-a-chip (hBMEC, HBVP, NHA)

SMILES: CC[C@]1(O)C[C@H]2CN(CCc3c([nH]c4ccccc34)[C@@](C(=O)OC)(c3cc4c(cc3OC)N(C=O)[C@H]3[C@@](O)(C(=O)OC)[C@H](OC(C)=O)[C@]5(CC)C=CCN6CC[C@]43[C@@H]65)C2)C1 [Vincristine, vincristine]
- Css,brain (steady state concentration of brain channel): 51.41 ng/mL
